Measured values as given in patent US10087260B2, “Anti-HER2 antibody and conjugate thereof” (REMEGEN, LTD., priority 2013, dated 2018).

What was measured:
MDA-MBA468 = test: Flow cytometry binding with HER2 negative cells; format: cell-based, human; conditions: 6 μg antibody
Protocol: (§1) After 2 times of thoroughly washing with 4 ml cold PBS, the antibodies binding with the cell surface were detected by R-PE-coupled goat anti-human IgG Fc specific second antibody (15 μl, 25 μg/mL), and then analyzed by flow cytometer (BD FACSCalibur). No binding was detected between the human IgG1 (control group) and the three kinds of cancer cells. […] By titering the concentration of anti-HER2 antibody and analyzing the cell numbers in flow cytometry, a cell-based binding curve of anti-HER2 antibody with HER2 on cell surface was obtained, and the result was shown in FIG. 4b.

[1] = test system: BT474 human breast cancer transplantation tumor; test: Tumor inhibition of RC48, BT474 human breast cancer transplantation tumor model; format: in vivo, nude mouse; conditions: 10 mg/kg, administered three times
Excerpt: Human breast cancer BT474 nude mouse transplantation tumor model was established by inoculating BT474 cells into nude mouse subcutaneously. After growing continuously in vivo for 3 generations, the tumor tissue which grew vigorously was taken and cut into about 1.5 mm3, and inoculated subcutaneously to right-side armpit of nude mouse (provided by Shanghai Slac Laboratory Animal Co. Ltd., with the certificate No. 2007000540582 and license No. SCXK(hu)2012-0002) under sterile conditions. The diameter of the nude mouse transplantation tumor was measured by vernier caliper. The animals were grouped randomly until the tumor grew up to 100˜300 mm3.

[2] = test system: HER2+ cells SK-BR-3, BT474; test: Flow cytometry binding with HER2 positive breast cancer cells; format: cell-based, human; conditions: 6 μg antibody, SK-BR-3 and BT474
Protocol: as §1

[3] = test system: NCI-N87 human gastric cancer; test: NCI-N87 human gastric cancer nude mouse subcutaneous transplantation tumor model; format: in vivo; conditions: 10 mg/kg, dosing once per week, for 3 times
Protocol: [Worded in the source for another cell line; this cell line is reported under the same test.] (§2) SPF-level BALB/c nude mice were inoculated subcutaneously with a certain amount of BT-474/L1.9 tumor cells, and after the tumor growing to 100-200 mm3, the animals were randomly grouped. […] The tumor volume was measured 2 times a week. The murine weight was weighted and the resistant capacity of the tumor-bearing mice towards the drugs was observed. The data were recorded. The tumor volume and the tumor-inhibition rate of each tumor-bearing mouse were calculated at different observation time points.

[4] = test system: BT-474/L1.9 human breast cancer; test: Herceptin- and Lapatinib-resistant BT-474/L1.9 nude mouse subcutaneous transplantation tumor model; format: in vivo; conditions: 10 mg/kg, once per week, totally 3 times
Protocol: as §2

[5] = test system: HER2/neu over-expressed metastatic breast cancer; conditions: cited from earlier work

Trastuzumab [Herceptin]
binding with HER2 negative cells (MDA-MBA468): no binding | tumor-inhibitory effect on BT474 tumors [1]: inhibited | binding with HER2 positive cells [2]: strong binding | tumor-inhibition rate [3]: 49% | tumor-inhibition rate [4]: 51% | subjects with no or only weak response ([5]; HER2-overexpressed breast cancer, Herceptin therapy): about 85% | effective rate ([5]; clinical trials, combination therapy with chemical drugs): up to 50%
